According to patent US4465676A, “16α Halogen substituted 3,17β-dihydroxy steroidal estrogens” (priority 1980, dated 1984):
Read-outs that look alike come from different tables or passages of the source.

Chains of the proteins cited; added tags and fusions are not shown.
UniProt P49884, whole entry: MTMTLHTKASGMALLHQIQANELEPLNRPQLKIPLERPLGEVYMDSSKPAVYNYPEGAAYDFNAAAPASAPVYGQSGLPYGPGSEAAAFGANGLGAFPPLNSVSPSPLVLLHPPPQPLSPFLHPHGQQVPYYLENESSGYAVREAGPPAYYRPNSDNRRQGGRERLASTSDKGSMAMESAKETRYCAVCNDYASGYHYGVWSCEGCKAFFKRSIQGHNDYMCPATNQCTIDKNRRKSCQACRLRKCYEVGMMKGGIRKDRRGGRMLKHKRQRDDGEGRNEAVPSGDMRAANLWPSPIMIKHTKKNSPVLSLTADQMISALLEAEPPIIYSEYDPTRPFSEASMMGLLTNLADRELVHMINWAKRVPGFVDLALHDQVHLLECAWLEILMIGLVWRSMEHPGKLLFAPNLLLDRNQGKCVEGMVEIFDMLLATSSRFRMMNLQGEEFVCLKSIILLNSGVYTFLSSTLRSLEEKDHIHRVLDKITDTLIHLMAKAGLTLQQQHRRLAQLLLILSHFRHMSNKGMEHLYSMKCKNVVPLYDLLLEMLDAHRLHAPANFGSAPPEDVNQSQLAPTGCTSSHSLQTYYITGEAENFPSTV

Target: estrogen receptor (calf uterine cytosol) (Bos taurus, UniProt P49884)
Test: Competition for the estrogen receptor in calf uterine cytosol
Conditions: for activity at 0.0005 µM: competitor 0.5 nM

C[C@]12CC[C@H]3[C@@H](CCC4=CC(=O)CC[C@@]43C)[C@@H]1CC[C@@H]2O [Testosterone]
activity at 0.0005 µM (read-out: B/B0 × 10^2, tracer ^3 H-E2 (0.74 nM)): 97% | activity at 0.005 µM (read-out: B/B0 × 10^2, tracer ^3 H-E2 (0.74 nM), competitor 5.0 nM): 95% | activity at 0.0005 µM (read-out: B/B0 × 10^2, tracer ^125 I-E2 (0.22 nM)): 93% | activity at 0.005 µM (read-out: B/B0 × 10^2, tracer ^125 I-E2 (0.22 nM), competitor 5 nM): 93%
